# Ab-91 heavy chain CDR variants: yeast mating affinities

Data: MIT Lincoln Laboratory AlphaSeq set, Engelhart et al. 2022, doi:10.1038/s41597-022-01779-4, as distributed in FLAb.

Binding partner: SARS-CoV-2 spike HR2 peptide, sequence PDVDLGDISGINAS.

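Phage display of a naive human antibody library on the peptide gave the parent. AAYL51 was designed without a model: most single CDR substitutions and a random sample of double and triple ones. The assay is AlphaSeq: two haploid yeast populations carry antibody and antigen on their surface. The frequency of each diploid, read from paired DNA barcodes, reflects how well the two displayed proteins bind. Each replicate has its own calibration line, from reference interactions of the BCL2 family. Mating was done three times.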

The variants keep the light chain, the linker and the frameworks of Ab-91 (scFv order VL, a (GGGGS)3 linker, VH).
VL: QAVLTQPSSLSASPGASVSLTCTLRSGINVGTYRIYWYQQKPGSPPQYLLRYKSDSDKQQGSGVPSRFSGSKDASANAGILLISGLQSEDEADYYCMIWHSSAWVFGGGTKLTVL
VH: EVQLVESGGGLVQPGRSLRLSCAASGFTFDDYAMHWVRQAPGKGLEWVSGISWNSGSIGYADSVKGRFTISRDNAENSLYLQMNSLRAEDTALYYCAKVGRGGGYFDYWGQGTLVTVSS

Variants are written as CDR1, CDR2 and CDR3 of the heavy chain (limits as in the source). Parent: GFTFDDYAMH, GISWNSGSIGYADSVK, VGRGGGYFDY. Values are log10 of the apparent Kd in nM; lower means stronger binding. Averages over replicates are reported, and they cover detected replicates only. Where no diploid with the target was found in that replicate, the entry reads "n.d.": below detection, most likely a poor binder, though not proof of it. Parent in this assay: reference entry 1.86, copy in this library 0.88. Nonspecific signal, from three strains lacking the peptide, appeared in 21% of pairings of library AAYL51, centred on 4.54 (5% of these signals below 3.26); values are not corrected for it. Also given: how often the same scFv was detected with the empty control strains, with their mean in brackets.

CDR-H1	CDR-H2	CDR-H3	replicates, log10 nM	mean log10 Kd (nM)	empty controls
GFTEDDYAMH	GISWNYGSIGYACSVK	VGRGGGYFDY	n.d. / n.d. / n.d.	n.d.	0/9
GPTFDDYAMH	GISWNSGSIGYADSLK	VGRGGGYFDY	n.d. / n.d. / n.d.	n.d.	1/9 (2.89)
GYTFDDYAMH	GISWNSGSICYADSVK	VGRGGGSFDY	n.d. / 4.26 / n.d.	4.26	0/9
GFTFDDYAMH	GIEWNSGSLGYADSVK	VGRGGGYQDY	n.d. / n.d. / n.d.	n.d.	0/9
GFTFDDYAMH	GISWNSGSFGYADSVW	VGRGGGYFDY	2.61 / 2.77 / 2.09	2.49	1/9 (4.39)
GFTFDDGAMH	GISWNSGSDGYADSVK	VGRCGGYFDY	4.46 / 6.01 / n.d.	5.23	5/9 (5.08)
GFTFDDYAMH	GISMNSGSIVYADSVK	VGRGGGYFDM	n.d. / n.d. / n.d.	n.d.	1/9 (3.98)
GFTFDDYAMH	GISWNSGCVGYADSVK	VGRGKGYFDY	n.d. / n.d. / n.d.	n.d.	0/9
GCTFDDYAMK	GISWNSGSIGYADSVK	VGYGGGYFDY	5.71 / n.d. / 5.12	5.41	4/9 (4.90)
GFTFDDYAMP	GISWNCGSIGGADSVK	VGRGGGYFDY	n.d. / 3.80 / n.d.	3.80	1/9 (3.59)
GFTFKDYAMH	GISWNSGSIGYADSVK	VKRGGLYFDY	n.d. / n.d. / 4.58	4.58	1/9 (5.00)
GFTFDDYAMH	GISWNSGHIGYASSVK	VGRGGGYFDY	n.d. / n.d. / n.d.	n.d.	1/9 (3.67)
GFTFDDYARH	GISWNSGSIGYADSVK	VGRGGGEFPY	n.d. / n.d. / n.d.	n.d.	1/9 (3.94)
GHTFDDYAMH	FISWNSGSIGYADSVK	VCRGGGYFDY	5.34 / n.d. / 4.13	4.73	2/9 (4.18)
PFTFDDYAMH	GASWNSGSIGYADSVK	VGRGGGYFDY	n.d. / n.d. / n.d.	n.d.	3/9 (4.62)
GFTFDDDAMH	GISWNSGSIGYADSVC	VGNGGGYFDY	3.06 / 2.49 / n.d.	2.77	0/9
GFTFDDYAMH	PIQWNSGSIGYADSVK	VGRGGGYFGY	3.42 / n.d. / n.d.	3.42	3/9 (4.04)
GATFDDYAMH	GISWNSKSIGYADSVK	VGRGGGYFTY	4.36 / 3.42 / n.d.	3.89	0/9
GFTFDDYKMW	GISWNSGSIGYADSVK	VGRGGGWFDY	n.d. / 3.68 / n.d.	3.68	2/9 (3.60)
EFTFDDYAMH	GHSWNSGSIGWADSVK	VGRGGGYFDY	n.d. / n.d. / n.d.	n.d.	2/9 (2.80)
GFTFDDYAMH	GISWNSGSIGYADSVK	DGRGGGYFDD	4.25 / 3.70 / 4.45	4.14	5/9 (5.21)
GFTFDDYAMH	GISRNSGSIGYADPVK	VGEGGGYFDY	3.87 / 3.56 / 3.65	3.70	3/9 (5.08)
GFGFDDYAMH	GISWNSGSIYYADSVK	VGRGGGYRDY	3.99 / n.d. / n.d.	3.99	1/9 (4.23)
GFTFDDYCMH	GISWNSGEIGYWDSVK	VGRGGGYFDY	n.d. / n.d. / n.d.	n.d.	1/9 (2.21)
GFTFDDYAMS	GISWNSGSIGYADSVK	GGRGGGYFDY	n.d. / 5.94 / n.d.	5.94	4/9 (4.41)
GFTFDDYAMH	GICWNSLSIGYADSVK	VGRGGGYFDG	4.55 / n.d. / 4.57	4.56	9/9 (5.17)
GFTFDDYAMH	GIEWNSGSIGYADMVM	VGRGGGYFDY	n.d. / n.d. / n.d.	n.d.	1/9 (4.08)
GFTFDDYAMH	GISWNSGIIGYADSVY	VGRGGGYFDY	n.d. / n.d. / n.d.	n.d.	1/9 (3.36)
GFTFVDYAMH	GISWNFMSIGYADSVK	VGRGGGYFDY	n.d. / n.d. / n.d.	n.d.	0/9
PFCFDDYAMH	GISWNSGSIGYADSVK	VVRGGGYFDY	4.33 / n.d. / n.d.	4.33	1/9 (3.87)
GFTFNDYAMH	GISWNSGSIGYAESVK	VGRGGGYFDY	1.18 / 1.29 / 0.81	1.09	2/9 (4.22)
GFTFMDYAMH	GISWNSGSIGYADSVK	VGRHGGYFDY	2.60 / 2.52 / 2.54	2.56	5/9 (4.30)
GFTFDDYAMH	GISWNSGSIICADSVK	VGRGGGYFPY	3.85 / n.d. / 3.83	3.84	3/9 (4.10)
GFTFDDYAMR	GISWNSGSIEYAVSVK	VGRGGGYFDY	n.d. / n.d. / n.d.	n.d.	0/9
GFTFSDYPMH	GISWNSGSIGYADSVK	VGRGGGYFDM	6.13 / n.d. / n.d.	6.13	4/9 (5.19)
GFTFDDYAMH	GISWNSGSIGPADSVK	VGRGGGYFDY	4.44 / 4.58 / 5.15	4.72	1/9 (4.68)
GFTFDDYAMF	GISWNSGSIGYADSVM	VGRGGGYFDY	n.d. / n.d. / n.d.	n.d.	0/9
GFTFDDYAMH	GISWNSGSHGYADRVK	VGRGGNYFDY	n.d. / n.d. / n.d.	n.d.	0/9
GFTFDDYAWH	GISWNSGSIGYADSVR	PGRGGGYFDY	4.56 / n.d. / n.d.	4.56	4/9 (3.77)
GFTFDNYAMH	GISWNSGSIGYADSVK	VGRGGGYFDY	1.26 / 1.10 / 0.65	1.00	2/9 (4.57)
GFTFDDYAMH	GISWNSGSIGYADFVK	VHRGGGYFEY	1.44 / 1.90 / 2.21	1.85	1/9 (2.55)
GFIFDDYAMH	GISWNLGSIGYADSVK	VGRGGGYCDY	n.d. / n.d. / 4.30	4.30	1/9 (4.37)

A selection of 5 entries from above:

| CDR-H1 | CDR-H2 | CDR-H3 | replicates, log10 nM | mean log10 Kd (nM) | empty controls |
|---|---|---|---|---|---|
| GFTFKDYAMH | GISWNSGSIGYADSVK | VKRGGLYFDY | n.d. / n.d. / 4.58 | 4.58 | 1/9 (5.00) |
| PFCFDDYAMH | GISWNSGSIGYADSVK | VVRGGGYFDY | 4.33 / n.d. / n.d. | 4.33 | 1/9 (3.87) |
| GPTFDDYAMH | GISWNSGSIGYADSLK | VGRGGGYFDY | n.d. / n.d. / n.d. | n.d. | 1/9 (2.89) |
| GFTFDDYAMH | GISWNSGSHGYADRVK | VGRGGNYFDY | n.d. / n.d. / n.d. | n.d. | 0/9 |
| GFTFDNYAMH | GISWNSGSIGYADSVK | VGRGGGYFDY | 1.26 / 1.10 / 0.65 | 1.00 | 2/9 (4.57) |